Measurements published in patent US20190154879A1, “Silicone Hydrogel Contact Lenses Having Improved Lubricity” (CooperVision International Holding Company, LP, priority 2016, published 2019).

Assay: Hydrophilic-lipophilic balance (HLB) value
Format: physicochemical
Settings: calculated as twenty times molecular weight of hydrophilic portion divided by total molecular weight

D-a-Tocopheryl polyethylene glycol 1000 succinate
HLB value: about 13
